Apparent affinities of Ab-14 variants for a coronavirus HR2 peptide

From the AlphaSeq antibody data of Engelhart et al. 2022 (doi:10.1038/s41597-022-01779-4), copy in the FLAb collection.

All variants were tested on one target, the spike HR2 peptide PDVDLGDISGINAS (SARS-CoV-2).

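In library AAYL49, one, two or three CDR residues were substituted; doubles and triples were drawn at random. The scFvs were displayed on barcoded MATa yeast, the peptide on MATalpha yeast. The frequency of each diploid, read from paired DNA barcodes, reflects how well the two displayed proteins bind. The ratio of observed to expected reads was calibrated, replicate by replicate, on BCL2-family standards whose Kd was known from biolayer interferometry. There are three technical replicates.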

Parent: Ab-14, a human scFv built as VH, a (GGGGS)3 linker, VL. Only the CDRs of the heavy chain vary.
VH: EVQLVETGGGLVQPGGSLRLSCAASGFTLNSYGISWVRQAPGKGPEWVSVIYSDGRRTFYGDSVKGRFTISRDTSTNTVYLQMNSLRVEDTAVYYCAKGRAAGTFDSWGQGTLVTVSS
VL: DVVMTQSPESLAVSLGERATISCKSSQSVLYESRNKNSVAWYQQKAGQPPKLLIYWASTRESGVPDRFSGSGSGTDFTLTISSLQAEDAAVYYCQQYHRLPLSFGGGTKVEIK

Positions count from residue 1 of the parent VH; S31I puts I in place of S.
The read-out is the apparent dissociation constant on a log10 scale (nM): the lower, the stronger.
"ND" marks a missing value. The strain was present, yet no cells mated with the target were sequenced in that replicate, which points to weak or no binding.
Empty control strains, which show no peptide, gave a signal in 15% of pairings with library AAYL49; the median was 4.06 and 95% of these signals were weaker than 2.83. No background was subtracted. The control count says in how many pairings with the empty strains this scFv gave a signal, with their mean in brackets.

changes	log10 Kd, replicates	empty controls
S31I+G33A+K65G	ND ND ND	0/9
S63D+R100T+A101N	-0.05 0.31 0.09	3/9 (4.39)
D54Y+D62W+K65G	ND ND 4.04	1/9 (4.73)
G33V+G55K+V64Q	ND ND ND	0/9
G33K+I34D+D54H	ND ND ND	0/9
L29C+D54T+D106E	ND ND ND	4/9 (4.15)
S31Q+V64T+A101D	1.85 1.85 1.97	3/9 (3.55)
R57I+V64N+G99Q	ND ND ND	0/9
Y52V+K65L+F105D	ND ND 3.97	0/9
I34H+S63N+D106Y	ND ND 5.23	4/9 (4.29)
Y32E+I51V+Y52E	ND 3.95 2.99	3/9 (3.49)
N30W+R57V+G99K	ND ND ND	0/9
Y60P+V64M+A101D	5.18 3.81 3.84	6/9 (3.97)
Y32L+S35Y+R100K	ND ND 2.68	3/9 (3.22)
L29K+G61C+A101I	5.75 5.43 5.39	5/9 (4.83)
G55F+V64H+R100C	ND ND ND	0/9
T28A+A101M+T104H	ND ND ND	0/9
I34Y+Y60C+S107I	ND ND ND	2/9 (3.39)
R57H+G61C+V64D	ND ND ND	1/9 (3.49)
G26V+T58E+R100C	ND ND ND	0/9
S31T+S53H+R100A	0.73 1.02 1.20	0/9
G26A+S31Q+D62G	2.03 1.72 2.68	0/9
I51K+R100S+G103R	ND 4.80 ND	0/9
F27V+A101E+D106A	ND 3.07 4.32	0/9
V50C+R57C+G103I	ND ND ND	0/9
F27N+S107A	ND ND ND	1/9 (4.06)
R57F+K65V+F105Q	ND 5.13 ND	4/9 (3.92)
R100A+A101I+G103D	ND ND ND	0/9
N30W+S35E+F105A	ND ND ND	0/9
S35W+V50P+Y60H	ND 3.38 ND	1/9 (3.88)
G55C+G61Y+A101W	ND ND ND	0/9
F27R+D54N+T104H	4.61 ND 4.30	3/9 (3.86)
S31Q+G55L+K65D	ND ND ND	2/9 (4.32)
S31V+V50E+S63P	ND 3.93 ND	3/9 (4.35)
Y52M+D62L	4.48 ND ND	2/9 (3.93)
G26M+T28M+V50G	ND ND ND	0/9
F59M+G61F	ND 2.32 ND	1/9 (3.53)
L29K+G55A+T104S	2.41 ND ND	1/9 (3.36)
R56T+K65A+G99I	ND ND ND	1/9 (3.84)
V50E+F105K+S107Y	ND ND 3.30	1/9 (2.92)
S31M+Y60D	5.22 ND ND	1/9 (4.61)
L29F+Y60A+D106G	ND ND ND	0/9
L29F+G55K+F59E	4.94 ND 5.40	0/9
I34R+T58I	ND 3.69 ND	0/9
T28R+S31T+T58E	ND 4.60 ND	0/9
S53I+G103D	ND ND ND	0/9
S35N+F59P	ND 4.28 4.07	1/9 (4.27)
F27N+G33A+I34L	ND ND ND	3/9 (4.18)
S31M+V50G+Y52K	ND 5.00 ND	4/9 (3.86)
D54G+A101I+T104W	ND ND ND	1/9 (5.19)
Y32E+V50Q+R57D	ND ND ND	2/9 (3.72)